Shown are actives, neighbours in structure and some others; about 1.2% of the full set was active somewhere.
Cneo AK release = Cryptococcus neoformans lysis via adenylate kinase release. C. neoformans lysis, adenylate kinase release luminescence, 4 h; normalised: neutral wells 0, clomiphene wells 100. lysis activity, % at 15 µM. actives 0.2% (n = 360,000). AID 651654;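 active means mean lysis activity across replicates of at least 80%, whatever share of replicates individually reach that level; inactive means mean lysis activity below 80%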
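Material: C. neoformans cells; Schedule: 4 h static compound exposure, 37 °C, read 1 h post-reagent; Measured by: adenylate kinase release luminescence; Read-out: signal increase indicating cell lysis; Controls: Clomiphene as positive lysis control.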
miR-122 sensor = inhibitors of miR-122 in Huh7 cells | Huh7 miR-122 Renilla luciferase sensor, 48 h; neutral wells = 0, positive control = 100 | activation (reporter increase), % at 12.5 µM | actives 0.3% (n = 340,000);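 active means mean replicate activation score at least 90 and every replicate individually at or above 90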;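 further: higher luciferase means less miR-122 activity so hits act as miR-122 inhibitors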
Yeast UUG start = yeast start codon fidelity modulation | S. cerevisiae UUG-firefly luciferase reporter, luminescence/redox ratio | activity score, % at 18.7 µM | 0.13% of 350,000 active | AID 602363;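 active means replicate mean at a twofold rise or more, about +100% in these data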;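 further: firefly luciferase made from a UUG start codon reports start codon fidelity; reporter light over untreated wells divided by growth signal over untreated wells; some hits fall short of that in this replicate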
Statin myotox sup = suppression of simvastatin myotoxicity. C2C12 myotubes + simvastatin, ATP luminescence, 48 h; scaled: DMSO 0, geranylgeraniol control 100. rescue of ATP level, % at 7.49 µM. actives 0.78% (n = 330,000). AID 602340;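 active means mean ATP rescue above about 67%, or every replicate alone reaching that limit, limit read from the data, passing the limit was not always enough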;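 further: myotubes were challenged with 10 µM simvastatin during compound exposure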
An asterisk follows results filed as active; x = no result; [ ] = dose if it differs, or a comment.

[1] Cc1ccnc2nc(C(=O)OCCOc3ccccc3)nn12
[2] O=C(C1CCOCC1)N1CC[C@H]2[C@H](CO)Nc3ccc(Br)cc3[C@H]21
[3] COc1ccc(CN(Cc2cccn2C)C(=O)c2cc3cc(OC)ccc3[nH]2)cc1
[4] CCN(Cc1ccccc1)C(=O)c1cc2cc(OC)c(OC)cc2[nH]1
[5] CCC1(C)Nc2ccccc2C(=O)N1O (centres undefined)
[6] C[C@H](CO)N1C[C@H](C)[C@@H](CN(C)C(=O)Nc2ccc3c(c2)OCO3)Oc2ccc(NS(=O)(=O)c3cn(C)cn3)cc2CC1=O
[7] Nc1cccc2c1C(=O)N(C(=O)c1cccc(S(=O)(=O)N3CCCC3)c1)C2=O
[8] NC(=O)c1cccc(S(=O)(=O)N2CCCCC2)c1
[9] C[C@@H]1CN([C@H](C)CO)C(=O)c2cccc(NC(=O)C3CCOCC3)c2O[C@@H]1CN(C)Cc1ccc(C(=O)Nc2ccccc2N)cc1
[10] C[C@@H]1CN([C@@H](C)CO)C(=O)c2cccc(NC(=O)C3CC3)c2O[C@H]1CN(C)Cc1ccc(C(=O)Nc2ccccc2N)cc1

| entry no. | 1 | 2 | 3 | 4 | 5 | 6 | 7 | 8 | 9 | 10 |
| --- | --- | --- | --- | --- | --- | --- | --- | --- | --- | --- |
| Cneo AK release | -0.7 | -0.2 | -0.8 | -3.3 | -0.1 | -4.9 | -2.4 | x | 1.5 | -1.6 |
| miR-122 sensor | -3.4 | 4.1[16.7 µM] | 3.0 | 0.1 | 10.4 | 12.4[16.7 µM] | -3.2 | -1.5 | 14.3[16.7 µM] | 1.3[16.7 µM] |
| Yeast UUG start | 1.4 | 4.9 | -22.4 | -1.6 | -2.4 | -9.5 | 12.7 | x | 1.1 | 4.3 |
| Statin myotox sup | -4.5 | 23.3 | 123.9* | 10.7 | 117.8* | -28.4 | 137.7* | -1.2 | 110.1* | -2.3 |

[11] C[C@@H]1CN([C@@H](C)CO)C(=O)c2cccc(NC(=O)C3CCCCC3)c2O[C@@H]1CN(C)Cc1ccc(C(=O)Nc2ccccc2N)cc1
[12] O=C(C[C@@H]1CC[C@@H](NC(=O)c2cnccn2)[C@@H](CO)O1)NCc1ccccc1F
[13] Cc1ccc(S(=O)(=O)N2CC[C@@H]3[C@@H](CO)Nc4ccc(-c5ccccc5F)cc4[C@@H]32)cc1
[14] Cc1ccc(S(=O)(=O)N2CC[C@@H]3[C@H]2c2cc(-c4ccccc4F)ccc2N[C@@H]3CO)cc1
[15] Cc1ccccc1S(=O)(=O)N1CC[C@@H]2[C@@H](CO)Nc3ccc(-c4ccc(F)cc4)cc3[C@@H]21
[16] C[C@@H]1CN([C@H](C)CO)C(=O)c2cccc(NC(=O)c3ccncc3)c2O[C@@H]1CN(C)Cc1ccc(C(=O)Nc2ccccc2N)cc1
[17] CCOC(=O)C(Cc1ccccc1)C(=O)Nc1nccs1 (centres undefined)
[18] COCC(=O)Nc1ccc2c(c1)C(=O)N(C)C[C@H](OC)[C@H](C)CN(C(=O)NC(C)C)[C@@H](C)CO2
[19] CCN(CC)S(=O)(=O)N1CCC(C(=O)NCCN2CCOCC2)CC1
[20] O=C(Nc1ccccc1)NC1(C(=O)NCCCN2CCOCC2)CCCCC1

| entry no. | 11 | 12 | 13 | 14 | 15 | 16 | 17 | 18 | 19 | 20 |
| --- | --- | --- | --- | --- | --- | --- | --- | --- | --- | --- |
| Cneo AK release | -7.8 | -1.8 | 2.0 | 104.3* | 5.7 | 3.5 | 1.7 | 4.7 | -0.1 | 0.7 |
| miR-122 sensor | 184.6*[16.7 µM] | -12.3[16.7 µM] | 153.6*[16.7 µM] | 17.5[16.7 µM] | 157.5*[16.7 µM] | 26.1[16.7 µM] | -4.9 | 9.4[16.7 µM] | -2.1 | -5.4 |
| Yeast UUG start | -5.6 | 0.4 | -5.0 | 6.4 | 2.2 | -4.7 | -8.6 | -3.3 | -2.2 | -13.0 |
| Statin myotox sup | -51.5 | -16.1 | 5.0 | 30.0 | -20.8 | x | 99.1* | -4.3 | 107.2* | 101.9* |

Laid out differently: entries from further up
Results follow in this order: Cneo AK release	miR-122 sensor	Yeast UUG start	Statin myotox sup
14. Cc1ccc(S(=O)(=O)N2CC[C@@H]3[C@H]2c2cc(-c4ccccc4F)ccc2N[C@@H]3CO)cc1
 : 104.3*	17.5[16.7 µM]	6.4	30.0
15. Cc1ccccc1S(=O)(=O)N1CC[C@@H]2[C@@H](CO)Nc3ccc(-c4ccc(F)cc4)cc3[C@@H]21
 : 5.7	157.5*[16.7 µM]	2.2	-20.8

Following part.
[21] COc1ccc(NC(=O)N(C)C[C@H]2OCCCC[C@H](C)Oc3ccc(NS(=O)(=O)c4ccc(F)cc4)cc3C(=O)N([C@@H](C)CO)C[C@H]2C)cc1
[22] CN(c1ccc(C(=O)NCCSCc2ccco2)cc1)S(C)(=O)=O
[23] CN(c1ccc(C(=O)NCc2ccco2)cc1)S(C)(=O)=O
[24] CCSCCNC(=O)c1cc(-n2cnnc2)ccc1Cl
[25] CCOC(=O)N1CCN(C(=O)c2cc(-n3cnnc3)ccc2Cl)CC1
[26] O=C1CN(C(=O)COC(=O)C23CC4CC(CC(O)(C4)C2)C3)c2ccccc2N1
[27] CC1(C)C(=O)Nc2ccccc2N1C(=O)COC(=O)C12CC3CC(CC(O)(C3)C1)C2
[28] CO[C@@H]1CN(C)C(=O)c2cc(NC(C)=O)ccc2OC[C@H](C)N(CC2CC2)C[C@@H]1C
[29] C[C@@H]1CN([C@@H](C)CO)C(=O)c2cc(C#Cc3ccc(F)cc3)cnc2O[C@@H]1CN(C)C(=O)Nc1ccc(F)cc1
[30] COc1ccc(C#Cc2cnc3c(c2)C(=O)N([C@H](C)CO)C[C@H](C)[C@H](CN(C)C(=O)Nc2cccc4ccccc24)O3)cc1OC

| entry no. | 21 | 22 | 23 | 24 | 25 | 26 | 27 | 28 | 29 | 30 |
| --- | --- | --- | --- | --- | --- | --- | --- | --- | --- | --- |
| Cneo AK release | -4.3 | 7.9 | 2.0 | 7.4 | -2.3 | -3.4 | 0.2 | -9.8 | -4.7 | -5.6 |
| miR-122 sensor | 13.6[16.7 µM] | 0.0 | 1.2 | -1.3 | 0.7 | -5.3 | x | x | 4.6[16.7 µM] | x |
| Yeast UUG start | 4.6 | -10.3 | -4.3 | -8.0 | -16.2 | 2.1 | -1.0 | -4.6 | -11.1 | -9.4 |
| Statin myotox sup | x | -6.4 | 107.3* | -4.4 | 94.9* | 4.3 | 89.2* | -3.6 | 12.1 | 26.3 |

[31] Cc1ccccc1NC(=O)CCN1C(=O)CSC1=O
[32] CC1=C(C(=O)Nc2ccccc2C)C(c2ccc(C)o2)N2C(=O)CSC2=N1 (centres undefined)
[33] CN(C)/C=C/C(=O)c1ccc(N2CCN(c3ncc(C(F)(F)F)cc3Cl)CC2)cc1
[34] CN(C)C=NC(=O)c1ccc(N2CCN(c3ncc(C(F)(F)F)cc3Cl)CC2)cc1
[35] Cc1ccc(S(=O)(=O)Nc2ccc(-n3cnnn3)cc2)c(C)c1
[36] Cc1cc(S(=O)(=O)NCC(c2ccccc2)c2ccccc2)ccc1-n1cnnn1
[37] Cc1cc(S(=O)(=O)N(Cc2ccccc2F)C2CC2)ccc1-n1cnnn1
[38] CCN(CC)c1ccc(NC(=O)c2cnccn2)cc1S(=O)(=O)Nc1ccc(OC)cc1
[39] CCOc1ccc(NS(=O)(=O)c2ccc(NC(=S)NC(=O)CC(C)C)cc2)cc1
[40] C=C(C)CN(CC)C(=O)COc1ccc(S(=O)(=O)Nc2ccc(OC)cc2)cc1

| entry no. | 31 | 32 | 33 | 34 | 35 | 36 | 37 | 38 | 39 | 40 |
| --- | --- | --- | --- | --- | --- | --- | --- | --- | --- | --- |
| Cneo AK release | -0.6 | -4.6 | 3.0 | 2.9 | -0.3 | 5.0 | 0.2 | -6.6 | x | 1.7 |
| miR-122 sensor | -8.6 | -0.5 | 5.7 | -0.2 | 148.7* | 125.2* | 143.2* | 122.6* | 165.8* | 186.4* |
| Yeast UUG start | 2.2 | -0.4 | -17.3 | -14.7 | -1.2 | -5.7 | -28.8 | -7.1 | x | 0.4 |
| Statin myotox sup | 9.7 | 78.4* | 133.6* | x | 1.6 | 3.3 | -2.4 | x | x | -1.7 |

[41] CCCC(=O)NC(=S)Nc1ccc(S(=O)(=O)Nc2ccc(OCC)cc2)cc1
[42] Cc1ccc(S(=O)(=O)NCCC(C)C)cc1[N+](=O)[O-]
[43] O=C(C[C@@H]1CC[C@H]2[C@@H](COC[C@@H](O)CN2Cc2ccccc2F)O1)NCc1ccccc1F
[44] CC1CC(C)CN(CCCNC(=O)c2ccc3c(c2)NC(=O)C(N2CCCCC2)S3)C1 (centres undefined)
[45] O=C(NCCCN1CCCCC1)c1ccc2c(c1)NC(=O)C(N1CCCCC1)S2 (centres undefined)
[46] COc1cccc(NC(=O)N2C[C@H](O)COC[C@@H]3O[C@@H](CC(=O)NCc4ccccc4F)CC[C@H]32)c1
[47] CO[C@@H]1CC[C@@H]2CCOc3c(C#N)cccc3C(=O)N(C)C[C@H](c3ccccc3)CC(=O)N(C)C[C@@H]1O2
[48] CO[C@H]1CC[C@@H]2CCOc3ccc(C#N)cc3C(=O)N(C)C[C@@H](OC)[C@@H](C)C(=O)N(C)C[C@H]1O2

| entry no. | 41 | 42 | 43 | 44 | 45 | 46 | 47 | 48 |
| --- | --- | --- | --- | --- | --- | --- | --- | --- |
| Cneo AK release | -3.4 | x | -2.7 | x | x | -3.4 | 82.9* | 2.7 |
| miR-122 sensor | 181.2* | 232.1* | 5.4[16.7 µM] | -15.7 | -1.0 | -0.1[16.7 µM] | x | x |
| Yeast UUG start | -8.6 | x | -4.6 | x | x | x | x | x |
| Statin myotox sup | -21.2 | -9.0 | 12.6 | 106.6* | x | -23.8 | 10.5 | 75.4* |

Some entries already given with just miR-122 sensor and Cneo AK release:
cpd | SMILES | miR-122 sensor | Cneo AK release
45 | O=C(NCCCN1CCCCC1)c1ccc2c(c1)NC(=O)C(N1CCCCC1)S2 (centres undefined) | -1.0 | x
24 | CCSCCNC(=O)c1cc(-n2cnnc2)ccc1Cl | -1.3 | 7.4

Source: PubChem (Broad Institute)
